UUG fidelity: modulators of yeast start codon fidelity, primary screen, whole organism, S. cerevisiae, single point, plate reader | AID 602363, 2012 | actives 0.13% (n = 350,000) | activity score, % at 18.7 µM | S. cerevisiae UUG-firefly luciferase reporter, luminescence/redox ratio;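 active means replicate mean at a twofold rise or more, about +100% in these data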;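 further: firefly luciferase made from a UUG start codon reports start codon fidelity; reporter light over untreated wells divided by growth signal over untreated wells; some hits fall short of that in this replicate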
PDI inh: inhibitors of human protein disulfide isomerase; P07237; PDI insulin aggregation turbidity, A650, 90 min; inhibition, % at 10 µM; hit rate 0.052% among 350,000; AID 588391;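 active means mean inhibition across replicates of 30% or more, whatever share of single replicates reach that level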
S100A4 MyoIIA: S100A4-myosin IIA interaction inhibition; P26447; hit rate 0.14% among 360,000; inhibition, % at 10.7 µM; S100A4/TAMRA-MyoIIA peptide fluorescence polarization;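 active means mean inhibition of at least 70% across replicates, with every replicate also reaching that level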
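Material: S100A4 monomer protein / Buffer or medium: 50 mM HEPES pH 7.2, 10 mM CaCl2, 100 mM KCl / Times: 5 min incubation before reading / Benchmarks: neutral control DMSO, positive control TFP / Reagent: labelled myosin peptide probe, 5 nM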
FGF22 binding: shifts melting point of recombinant human FGF22; recombinant FGF22 thermal shift, SYPRO orange fluorescence; percent of sucrose octasulfate shift, DMSO zero; activity (Tm shift, normalised), % at 9.99 µM; AID 651658; hit rate 1.5% among 340,000;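 active means mean Tm shift, scaled 0 neutral to 100 positive control, at about 1.3% or above, every replicate too, limit read from the data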
SIRT5 block: inhibitors of human sirtuin-5 desuccinylase. Q9NXA8. AID 652115. hit rate 1.1% among 330,000. inhibition, % at 15 µM. Purified SirT5, succinyl-peptide AMC, trypsin-coupled fluorescence; in the data active means inhibition above about 15%
ERp5 inh: inhibitors of human ERp5; Q15084; ERp5 insulin aggregation, absorbance 650 nm, 90 min; inhibition, % at 9.99 µM; hit rate 0.05% among 350,000; AID 651711;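 active means mean replicate inhibition above about 25%, with every replicate also reaching it, limit read from the data, passing the limit was not always enough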
A number is an active result; - = inactive; . = not tested or not shown. A selection: hits, their analogues and other compounds. The true share with any hit is near 2.2%.

SMILES | UUG fidelity | PDI inh | S100A4 MyoIIA | FGF22 binding | SIRT5 block | ERp5 inh
C[C@@H]1CN([C@H](C)CO)C(=O)Cc2cc(NC(=O)c3ccncc3)ccc2O[C@H]1CN(C)S(=O)(=O)c1cn(C)cn1 | - | . | - | - | - | 77
C[C@@H]1CN([C@H](C)CO)C(=O)Cc2cc(NS(=O)(=O)c3ccc(F)cc3)ccc2O[C@H]1CN(C)S(=O)(=O)c1cn(C)cn1 | - | . | - | - | - | -
C[C@@H]1CN([C@H](C)CO)C(=O)Cc2cc(NS(=O)(=O)c3ccc(F)cc3)ccc2O[C@@H]1CN(C)S(=O)(=O)c1cn(C)cn1 | - | . | - | - | - | 27
Cn1c(-c2ccccc2)c[n+]2c1-c1ccccc1C2 | . | - | - | 45 | - | -
COc1ccc(NC(=O)Nc2cccc3c2O[C@@H](CN(C)Cc2ccc(Oc4ccccc4)cc2)[C@@H](C)CN([C@@H](C)CO)C3=O)cc1 | - | . | - | - | 15 | -
COc1ccc(NC(=O)Nc2cccc3c2O[C@H](CN(C)Cc2ccc(Oc4ccccc4)cc2)[C@H](C)CN([C@H](C)CO)C3=O)cc1 | - | . | - | - | - | -
COc1ccc(NC(=O)Nc2cccc3c2O[C@@H](CN(C)Cc2ccc(Oc4ccccc4)cc2)[C@@H](C)CN([C@H](C)CO)C3=O)cc1 | - | . | - | - | - | -
COc1ccc(NC(=O)Nc2cccc3c2O[C@@H](CN(C)Cc2ccc(Oc4ccccc4)cc2)[C@H](C)CN([C@@H](C)CO)C3=O)cc1 | - | . | - | - | 16 | -
C[C@@H]1CN([C@@H](C)CO)C(=O)Cc2cc(NC(=O)Nc3ccc4c(c3)OCO4)ccc2O[C@@H]1CN(C)Cc1ccc(C(=O)Nc2ccccc2N)cc1 | . | . | - | - | . | -
CCOc1ccccc1NC(=O)c1nc(-c2ccccc2)oc1C | . | - | - | 43 | - | -
Cc1oc(-c2ccccc2)nc1C(=O)Nc1nccs1 | - | - | . | . | . | .
C[C@@H]1CN([C@@H](C)CO)C(=O)Cc2cc(NC(=O)Nc3ccc4c(c3)OCO4)ccc2O[C@H]1CN(C)S(=O)(=O)c1cccs1 | - | . | . | - | . | .
O=C(C1CCCC1)N1CC2(C1)[C@H](c1ccccc1)[C@H](CO)N2C(=O)CC1CC1 | . | . | - | - | - | -
CCc1csc(CCNC(=O)C2CCC(=O)N(CCc3cccc(F)c3)C2)n1 (stereo not drawn) | - | - | - | - | - | 28
C[C@H](O)C#Cc1ccc2c(c1)O[C@@H](CN(C)C(=O)Cc1ccccn1)[C@H](C)CN([C@@H](C)CO)S2(=O)=O | - | . | - | - | - | -
C[C@@H]1CN([C@@H](C)CO)C(=O)c2cc(NC(=O)Nc3ccc(F)cc3)ccc2O[C@@H]1CN(C)CC1CCCCC1 | - | . | - | - | - | -
O=c1cnnc(SCc2ccc([N+](=O)[O-])cc2)[nH]1 | . | - | - | 43 | - | -
c1cc(CNCC2CCCO2)ccn1 (stereo not drawn) | . | - | - | 43 | - | -
C[C@@H]1CCCCO[C@@H](CN(C)Cc2ccc3c(c2)OCO3)[C@H](C)CN([C@H](C)CO)C(=O)c2cc(NC(=O)CCC(F)(F)F)ccc2O1 | - | . | - | - | - | -
CCCCC(=O)N1CCCC(c2nc(-c3cccc(OC)c3)no2)C1 (stereo not drawn) | - | - | - | 43 | - | -
COc1cccc(-c2noc(C3CCCN(C(=O)CC(C)(C)C)C3)n2)c1 (stereo not drawn) | . | - | - | - | - | -
O=C(c1cnccn1)N1CC(=O)N2[C@H](CO)[C@@H](c3ccc(-c4ccc(F)cc4)cc3)[C@H]2C1 | . | . | 124 | . | - | -
O=C(c1cnccn1)N1CC(=O)N2[C@@H](CO)[C@H](c3ccc(C#CC4CC4)cc3)[C@@H]2C1 | . | . | - | . | 23 | -
O=C(c1cnccn1)N1CC(=O)N2[C@@H](CO)[C@H](c3ccc(-c4ccc(F)cc4)cc3)[C@@H]2C1 | . | . | - | . | - | -
CC=Cc1ccc2n(c1=O)C[C@H]1[C@H](CO)[C@@H](C(=O)NC3CCC3)[C@@H]2N1C(=O)c1cnccn1 (mixture of isomers) | . | . | - | . | - | -
SMILES | UUG fidelity | PDI inh | S100A4 MyoIIA | FGF22 binding | SIRT5 block | ERp5 inh
O=C(OCc1cc([N+](=O)[O-])cc2c1OCOC2)c1ccccn1 | . | - | - | 43 | - | -
O=C(OCc1cc([N+](=O)[O-])cc2c1OCOC2)c1cccnc1SC(F)F | . | - | - | - | - | -
CN1CCN(C(=O)C2CCN(c3ncc(C(F)(F)F)cc3Cl)CC2)CC1 | . | - | - | - | 37 | -
CC12CCC3c4ccc(O)cc4CCC3C1CCC2=O (stereo not drawn) | - | 45 | - | - | - | -
C[C@]12CC[C@@H]3c4ccc(OS(=O)(=O)O)cc4CC[C@H]3[C@@H]1CCC2=O | - | - | - | - | - | -
CC1CCc2c(sc3ncn(Cc4ccc(C(=O)O)cc4)c(=O)c23)C1 (stereo not drawn) | - | - | - | 43 | - | -
COC(=O)Cn1cnc2sc3c(c2c1=O)CCCC3 | - | - | - | 43 | - | -
O=C(C[C@H]1CC[C@@H](NS(=O)(=O)c2ccccc2F)[C@@H](CO)O1)NCCCN1CCOCC1 | - | . | - | . | - | -
O=C(Cc1cccnc1)N1CC(=O)N2[C@@H](CO)[C@H](c3ccc(C#CC4CCCC4)cc3)[C@@H]2C1 | . | . | - | . | - | -
CC(C)(c1cc(Br)c(O)c(Br)c1)c1cc(Br)c(O)c(Br)c1 | - | . | - | 1.6 | . | -
Cc1ccc(CN2CCN(Cc3cccc(OCCO)c3)CC2CCO)o1 (stereo not drawn) | . | - | - | 44 | - | -
Cc1ccc(-c2cccc(CN3CCN(C(C)C)C(CCO)C3)c2)o1 (stereo not drawn) | . | - | - | 43 | - | -
Cc1ccccc1S(=O)(=O)N1C[C@H](O)COC[C@@H]2O[C@H](CC(=O)NCc3ccccc3Cl)CC[C@H]21 | . | . | . | - | . | .
Clc1ccc(SCc2cn3ccccc3n2)cc1 | . | - | - | - | 58 | -
Clc1ccc(-n2nnnc2SCc2cn3ccccc3n2)cc1 | - | - | . | . | . | .
O=C(Nc1ccccc1)N[C@@H]1CC[C@@H](CCn2cc(-c3ccccc3F)nn2)O[C@H]1CO | . | . | - | . | - | -
COCC(=O)Nc1ccc2c(c1)[C@H]1C[C@H](CC(=O)N(C)C)O[C@@H](CO)[C@H]1O2 | - | . | . | - | . | .
Cc1c(Cl)cnc(NC(=O)COC(=O)c2cccs2)c1Cl | - | - | - | - | - | -
CCC(CC)NC(=O)COC(=O)CCC(=O)c1cccs1 | . | - | - | 43 | - | -
Cc1c(Cl)cnc(NC(=O)COC(=O)CCC(=O)c2cccs2)c1Cl | . | - | - | 43 | - | -
CC(C)CNC(=O)COC(=O)CCC(=O)c1cccs1 | . | - | - | 43 | - | -
COc1cc(/C=C2\SC(=Nc3ccc(Cl)c(C(=O)O)c3)NC2=O)c(Br)c(Br)c1O | - | - | - | - | 26 | -

Source: PubChem BioAssay (Broad Institute)
